From PubChem BioAssay AID1159606 (Sanford-Burnham Center for Chemical Genomics, 2016)
Only a part is listed here, and it is no random draw. The source made the active and inactive calls. No stated cut-off is given here; in the data, active means inhibition above about 50%; inactive means the rest.

Assay: blockers of TWEAK-induced Fn14 reporter activity – luciferase reporter cells, uHTS, primary screen (AID 1159606)
Conditions: TWEAK-stimulated Fn14 reporter cells, luciferase luminescence, 8 h; at 10 µM; active compounds read high

Compound | inhibition
CN(C(=O)Cc1ccc(Cl)c(Cl)c1)[C@H]1CC[C@@]2(CCCO2)C[C@@H]1N1CCCC1 | inactive: 1.82%
